Legend:
Format in all cases: cell-based
MOR = MOR (Homo sapiens, UniProt P35372); assay: ERK1/2 phosphorylation assay, HEK293 cells expressing HA-MOR alone
MOR + CCKBR [1] = biological target: T1, MOR + CCKBR (Homo sapiens, UniProt P32239+P35372); assay: Intracellular cAMP assay
MOR + CCKBR [2] = biological target: T1, MOR + CCKBR; assay: ERK1/2 phosphorylation assay, HEK293 cells co-expressing HA-MOR and FLAG-CCKBR

Amino acid sequences for entries named in this document (tags omitted).
UniProt P32239, whole entry partner: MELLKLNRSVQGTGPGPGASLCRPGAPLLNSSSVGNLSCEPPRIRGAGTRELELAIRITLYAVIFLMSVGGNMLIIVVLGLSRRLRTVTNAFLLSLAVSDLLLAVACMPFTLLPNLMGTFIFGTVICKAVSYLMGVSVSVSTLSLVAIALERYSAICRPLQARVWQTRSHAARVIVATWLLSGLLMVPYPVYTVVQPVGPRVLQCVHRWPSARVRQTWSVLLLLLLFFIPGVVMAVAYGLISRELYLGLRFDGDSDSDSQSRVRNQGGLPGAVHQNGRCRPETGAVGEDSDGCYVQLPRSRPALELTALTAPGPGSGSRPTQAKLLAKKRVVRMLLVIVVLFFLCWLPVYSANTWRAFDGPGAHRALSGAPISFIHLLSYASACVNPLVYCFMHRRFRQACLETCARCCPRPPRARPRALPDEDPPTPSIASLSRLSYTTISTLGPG

## [D-Ala^2,N-Me-Phe^4,Gly-ol^5]-enkephalin [DAMGO]
MOR; 10^−10 M DAMGO, MOR alone
  time of return of ERK1/2 phosphorylation almost to basal level: ~15 min
MOR; 10^−10 M DAMGO, MOR alone, 1 to 60 min
  time of peak ERK1/2 phosphorylation: 5 min
MOR; DAMGO, cells expressing MOR alone, 37 °C, 5 min exposure
  ERK1/2 phosphorylation, concentration response: enhanced ERK1/2 phosphorylation in a concentration-dependent manner
MOR + CCKBR [1]; 10^−11 M DAMGO, 30 min, 100 μM forskolin, 500 μM IBMX, ELISA
  inhibition of forskolin-induced cAMP accumulation compared with cells expressing MOR alone: inhibition of cAMP accumulation decreased
MOR + CCKBR [1]; higher dose of DAMGO, co-expressing cells vs MOR alone
  cAMP response, difference between the two cell types at a higher dose: no significant difference
MOR + CCKBR [2]; 10^−10 M DAMGO, 5 min, **p < 0.01, t-test, n = 3
  ERK1/2 phosphorylation at 5 min compared with cells expressing MOR alone: decreased significantly
MOR + CCKBR [2]; 10^−10 M DAMGO, MOR and CCKBR co-expressing cells
  time of return of ERK1/2 phosphorylation almost to basal level: ~15 min
MOR + CCKBR [2]; 10^−10 M DAMGO, MOR and CCKBR co-expressing cells, 1 to 60 min
  time of peak ERK1/2 phosphorylation: 5 min
MOR + CCKBR [2]; DAMGO 10^−10, 10^−9, and 10^−8 M, 5 min, *p < 0.05, t-test, n = 4
  ERK1/2 phosphorylation compared with cells expressing MOR alone: Significantly lower ERK1/2 phosphorylation responses
MOR + CCKBR [2]; DAMGO, MOR and CCKBR co-expressing cells, 37 °C, 5 min exposure
  ERK1/2 phosphorylation, concentration response: enhanced ERK1/2 phosphorylation in a concentration-dependent manner

From PMC5960647 (Experimental & Molecular Medicine, 2018)
